# Test results taken from PubChem BioAssay AID602438 (Sanford-Burnham Center for Chemical Genomics, 2012).
# The chains behind the UniProt entries cited, without tags or fusion partners.
# UniProt O14786, whole entry: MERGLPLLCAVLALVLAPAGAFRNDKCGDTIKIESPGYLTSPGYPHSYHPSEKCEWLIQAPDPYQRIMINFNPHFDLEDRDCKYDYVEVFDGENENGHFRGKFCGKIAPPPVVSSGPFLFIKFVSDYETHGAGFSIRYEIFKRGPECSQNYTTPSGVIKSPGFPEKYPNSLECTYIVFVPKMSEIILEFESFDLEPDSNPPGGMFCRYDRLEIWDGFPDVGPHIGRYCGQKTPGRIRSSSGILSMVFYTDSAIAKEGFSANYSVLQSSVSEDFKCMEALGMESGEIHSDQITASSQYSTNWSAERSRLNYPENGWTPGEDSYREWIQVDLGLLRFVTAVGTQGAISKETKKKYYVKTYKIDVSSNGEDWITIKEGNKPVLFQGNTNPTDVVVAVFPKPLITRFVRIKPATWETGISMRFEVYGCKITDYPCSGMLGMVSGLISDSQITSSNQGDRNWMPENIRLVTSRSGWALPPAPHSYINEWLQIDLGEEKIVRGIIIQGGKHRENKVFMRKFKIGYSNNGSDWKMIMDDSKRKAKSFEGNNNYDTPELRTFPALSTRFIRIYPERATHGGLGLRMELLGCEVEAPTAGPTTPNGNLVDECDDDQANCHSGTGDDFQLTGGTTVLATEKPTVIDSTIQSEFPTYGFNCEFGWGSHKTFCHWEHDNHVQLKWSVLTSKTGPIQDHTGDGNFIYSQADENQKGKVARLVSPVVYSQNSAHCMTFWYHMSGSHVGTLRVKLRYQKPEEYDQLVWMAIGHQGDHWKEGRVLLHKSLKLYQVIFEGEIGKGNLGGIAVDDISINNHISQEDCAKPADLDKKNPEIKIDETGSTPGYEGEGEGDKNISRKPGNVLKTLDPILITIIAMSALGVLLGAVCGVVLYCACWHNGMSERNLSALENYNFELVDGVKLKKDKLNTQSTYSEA
# This is a selection; strong and weak results do not stand in their true shares. Some structures show a salt or complex split into parts, the way the source records it. Calls of active or inactive are those of the source.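 How the source made its calls: active means inhibition or corrected inhibition above about 18%, plus a signal ratio from 0.5 to 1.5 (limit read from the data, passing the limit was not always enough); inactive means the rest.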
# Target: Neuropilin-1 (Homo sapiens) (UniProt O14786)
# Test: modulators of CendR peptide binding to NRP-1, primary screen, biochemical, fluorescence polarization, uHTS (AID 602438)
# Settings: FAM-RPARPAR peptide binding to NRP-1, fluorescence polarization; at 25 µM; stronger effect = higher value
row,SMILES,inhibition
1,O=[N+]([O-])c1cc([N+](=O)[O-])c(Nc2ccccn2)c([N+](=O)[O-])c1,inactive: 13.4%
2,Cc1c(NP(C)(=O)Oc2ccc(C(C)C)cc2)c(=O)n(-c2ccccc2)n1C (stereo not given),inactive: 0.2%
3,CCc1ccc(OP(C)(=O)O)cc1,inactive: -2.3%
4,COc1ccccc1OP(C)(=O)Nc1ccc(C)cc1C (stereo not given),inactive: -0.1%
5,CP(=O)(Nc1ccccn1)Oc1ccccc1 (stereo not given),inactive: -9.6%
6,Cc1cc(C)cc(OP(C)(=O)Nc2cccc(C(F)(F)F)c2)c1 (stereo not given),inactive: 6.5%
7,O=C1C(O)=C([N+](=O)[O-])C(=O)C(O)=C1[N+](=O)[O-],inactive: 17.9%
8,COc1ccc(OP(C)(=O)Nc2ccccc2Br)cc1 (stereo not given),inactive: 4.6%
9,COc1ccccc1OP(C)(=O)Nc1ccc(C)c(C)c1 (stereo not given),inactive: 7.3%
10,CP(=O)(OCCOc1ccccc1)OCCOc1ccccc1,inactive: 6.6%
11,CCCCCCCCCCCCCCCC1C[N+](C)(C)CCOP(C)(=O)O1 (stereo not given),inactive: 8.5%
12,CP(=O)(Nc1ccc(Cl)cc1Cl)Oc1ccccc1 (stereo not given),inactive: -9.2%
13,CP(=O)(OC12CC3CC(CC(C3)C1)C2)OC12CC3CC(CC(C3)C1)C2,inactive: 12.4%
14,CCOC(=O)c1ccc(NP(C)(=O)Oc2ccc(Cl)cc2)cc1 (stereo not given),inactive: -0.5%
15,COc1ccc(OP(C)(=O)Nc2ccc(Br)cc2)cc1 (stereo not given),inactive: -1.2%
16,CCN(CC)CC(O)COC(=O)C(O)(c1ccccc1)C1CCCCC1 (stereo not given),inactive: -4.6%
17,CCc1ccc(OP(C)(=O)Nc2cccnc2)cc1 (stereo not given),inactive: 0.9%
18,CP(=O)(Oc1ccccc1)N1CCOC1=O (stereo not given),inactive: -3.8%
19,O=C(OCCCN1CCCC1)C(O)(c1ccccc1)C1CCCCC1 (stereo not given),inactive: -13.5%
20,COc1ccccc1OP(C)(=O)Nc1c(C)n(C)n(-c2ccccc2)c1=O (stereo not given),active: 29.6%
21,CP(=O)(Nc1ccc(Cl)cc1)Oc1ccc(F)cc1 (stereo not given),inactive: -7.6%
22,CC(C)(C)c1ccc(OP(C)(=O)O)cc1,inactive: 3.8%
23,COc1ccccc1OP(C)(=O)Nc1ccccc1Br (stereo not given),inactive: 2%
24,CN(C)C(=O)c1c([N+](=O)[O-])cc([N+](=O)[O-])cc1[N+](=O)[O-],inactive: 2.3%
25,CP(=O)(Nc1ccc(SC(F)(F)F)cc1)Oc1ccc(F)cc1 (stereo not given),inactive: 5.1%

row,SMILES,inhibition
1,CCOP(C)(=S)SCC(=O)NC(C)(CC)C(=O)O (stereo not given),inactive: -1.7%
2,CP(=O)(Nc1ccc2c(c1)OCCO2)Oc1ccccc1 (stereo not given),inactive: 3.9%
3,O=[N+]([O-])c1cc([N+](=O)[O-])c(C(F)(F)F)c([N+](=O)[O-])c1O,inactive: -8.8%
4,Cc1ccccc1NP(C)(=O)Nc1ccccc1C,inactive: -4.6%
5,COc1ccc(OP(C)(=O)Nc2cccc(Br)c2)cc1 (stereo not given),inactive: 0.9%
6,COc1ccc(NP(C)(=O)Oc2ccccc2OC)cc1 (stereo not given),inactive: -1.9%
7,CN(C)CCOC(=O)C(O)(c1ccccc1)C1CCCCC1 (stereo not given),inactive: 2.6%
8,Cc1cc(-c2cccc3ccccc23)c(C)cn1.O=[N+]([O-])c1cc([N+](=O)[O-])c(O)c([N+](=O)[O-])c1,inactive: -5.5%
9,O=[N+]([O-])c1cc([N+](=O)[O-])c(NCC2CCS(=O)(=O)C2)c([N+](=O)[O-])c1 (stereo not given),inactive: 14.1%
10,O=[N+]([O-])c1ccc(OP2(=O)COCCO2)cc1 (stereo not given),inactive: -0.6%
11,Cc1c(C(c2ccc3c(c2)OCO3)c2c(C)n(C)n(-c3ccccc3)c2=O)c(=O)n(-c2ccccc2)n1C.O=[N+]([O-])c1cc([N+](=O)[O-])c(O)c([N+](=O)[O-])c1,inactive: 5.1%
12,CCN(CC)CCCNc1ccccc1[N+](=O)[O-].O=[N+]([O-])c1cc([N+](=O)[O-])c(O)c([N+](=O)[O-])c1,inactive: -2.4%
13,COc1ccc(OP(C)(=O)Nc2ccc(SC(F)(F)F)cc2)cc1 (stereo not given),inactive: -10.2%
14,CCOC(=O)c1ccc(NP(C)(=O)Oc2ccc(F)cc2)cc1 (stereo not given),inactive: 0.9%
15,CCN(CC)CCCOC(=O)C(O)(c1ccccc1)C1CCCCC1 (stereo not given),inactive: -3.8%
16,Cc1c([N+](=O)[O-])cc([N+](=O)[O-])c(Br)c1[N+](=O)[O-],inactive: -0.8%
17,CCCCCOc1ccc(NP(C)(=O)Oc2ccc(Cl)cc2Cl)cc1 (stereo not given),inactive: 8.2%
18,O=[N+]([O-])c1cc([N+](=O)[O-])c(OC2CCCCC2O)c([N+](=O)[O-])c1 (stereo not given),inactive: -11.1%
19,CP(=O)(Nc1ccccc1)Oc1ccc(F)cc1 (stereo not given),inactive: 0.2%
20,O=[N+]([O-])c1cc([N+](=O)[O-])c(Nc2ccc(Cl)cc2)c([N+](=O)[O-])c1,inactive: 0.2%
21,CC(C)c1ccc(OP(C)(=O)Nc2ccc(SC(F)(F)F)cc2)cc1 (stereo not given),inactive: -8.1%
22,CP(=O)(Nc1ccccc1F)Oc1ccccc1 (stereo not given),inactive: -7.7%
23,O=C(OCCN1CCN(CCOCc2ccccc2)CC1)C(O)(c1ccccc1)c1ccccc1,inactive: 3.8%
24,O=C(OC1CN2CCC1CC2)c1ccc([N+](=O)[O-])cc1 (stereo not given),inactive: 6.2%
25,COc1ccc2c(c1O)-c1c(O)c(OC)cc3c1[C@H](C2)[N+](C)(C)CC3.O=[N+]([O-])c1cc([N+](=O)[O-])c([O-])c([N+](=O)[O-])c1[O-],inactive: 10.2%
